Values of other authors in US20120288495A1, “THERAPEUTIC COMPOSITIONS AND METHODS” (BIOTHERA, INC., priority 2009, published 2012).

Details: recommended dose regimen 400 mg/m^2 initial dose/250 mg/m^2 weekly dose; cited from earlier work

## cetuximab
  time to steady-state levels: by the third weekly infusion
